# Measured affinities in a library of Ab-14 heavy chain variants

From the AlphaSeq antibody data of Li et al. 2023 (doi:10.1038/s41467-023-39022-2), copy in the FLAb collection.

Target: peptide PDVDLGDISGINAS, taken from heptad repeat 2 (HR2) of SARS-CoV-2 spike.

The variants keep the light chain, the linker and the frameworks of Ab-14 (scFv order VH, a 15-residue (Gly4Ser)3 linker, VL).
VH: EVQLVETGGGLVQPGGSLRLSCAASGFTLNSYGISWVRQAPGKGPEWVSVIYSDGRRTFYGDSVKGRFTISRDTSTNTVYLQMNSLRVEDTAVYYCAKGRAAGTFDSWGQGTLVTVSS
VL: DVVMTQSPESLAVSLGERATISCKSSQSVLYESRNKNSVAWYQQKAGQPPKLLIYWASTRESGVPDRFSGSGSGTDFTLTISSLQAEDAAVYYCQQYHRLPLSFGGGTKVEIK

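The parent was found by panning a naive human phage display library on the peptide. The variants were designed computationally from a first round of random CDR variants and then made and measured. Several design methods are mixed in this list. The assay is AlphaSeq: two haploid yeast populations carry antibody and antigen on their surface. Binding brings cells together so that they mate, and sequencing counts the barcode pairs among the diploids. Each replicate has its own calibration line, from reference interactions of the BCL2 family. Each pool was mated in six replicate cultures.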

Variants are written as CDR1, CDR2 and CDR3 of the heavy chain (limits as in the source). Parent: GFTLNSYGIS, VIYSDGRRTFYGDSVK, GRAAGTFDS. This list holds designs with more than six substitutions. Kd is apparent (estimated from mating counts) and averaged on the log scale over replicates with a signal. Smaller is tighter. Where no diploid with the target was found in any replicate, the entry reads "nd": below detection, most likely a poor binder, though not proof of it.

For GMSLGEYGIS | VIYADGERAAYTNNFK | GVMAGTGDV, the assay gave nd (0 of 6 replicates; controls 0 of 18). The variant GFDLNEYGIS | VIYADGRRTAYIDSVK | GEAAGTFDF showed 240 pM (6 of 6 replicates; controls 0 of 18). The variant GFDLGEYGIS | VIYADGSRSAYATNVK | GGSVYKDDV showed nd (0 of 6 replicates; controls 0 of 18). The variant GFDLNEYGIS | VIYADGKRKAYADSVK | GNVAGTFDV gave 220 pM (6 of 6 replicates; controls 0 of 18). With GFDLNEYGIS | VIYADGMRTAYIDSVK | GENAGTFDI the result was 190 pM (6 of 6 replicates; controls 0 of 18). The variant GFDLNEYGIS | VIYADGMRTAYSDSVK | GQTAGTFDL gave 270 pM (6 of 6 replicates; controls 0 of 18). With GFDLNEYGIS | VIYADGKRSYYADSVK | GNVAGTFDV the result was 1.6 nM (6 of 6 replicates; controls 0 of 18).

For GFNLNEYGIS | VIYADGRRTFYTDSVK | GTNAGTFDM, the assay gave 790 pM (6 of 6 replicates; controls 0 of 18). For GFNLDEYGIS | VIYADGRRTFYADSVK | GEIAGTFDV, the assay gave 600 pM (6 of 6 replicates; controls 0 of 18). For GFDLDEYGIS | VIYADGVRMAYTDSVK | GNWSGRDMK, the assay gave 100 nM (1 of 6 replicates; controls 0 of 18). With GFDLNEYGIS | VIYADGMRTAYSDNVK | GNVAGTFDT the result was 250 pM (6 of 6 replicates; controls 0 of 18). With GFNLDEYGIS | VIYADGVRTQYAQSFK | GMSFGYIAG the result was nd (0 of 6 replicates; controls 0 of 18). For GFDLNEYGIS | VIYADGLRTSYADSVK | GQNAGTFDQ, the assay gave 180 pM (6 of 6 replicates; controls 0 of 18). With GFDLNEYGIS | VIYADGMRTAYADDVK | GNHAGTFDV the result was 150 pM (6 of 6 replicates; controls 1 of 18).

For GFDLNEYGIS | VIYADGMRTAYIDSVK | GNQAGTFDQ, the assay gave 49 pM (6 of 6 replicates; controls 0 of 18). The variant GFDLNEYGIS | VIYADGRRTAYADDVK | GNQAGTFDI showed 1.3 nM (6 of 6 replicates; controls 0 of 18). For GNDLNEYGIS | VIYADGSRTSYQEKVK | GLVGGMLAV, the assay gave nd (0 of 6 replicates; controls 0 of 18). With GFDLQDYGIS | VIYADGVRTQYVNNVK | GKWGATLSV the result was nd (0 of 6 replicates; controls 0 of 18). With GFDLNEYGIS | VIYADGMRTAYADSVK | GNIAGTFDQ the result was 430 pM (6 of 6 replicates; controls 0 of 18). The variant GFNLEDYGIS | VIYADGQRTFYADSVK | GEVAGTFDV showed 180 pM (6 of 6 replicates; controls 0 of 18). The variant GFGLDEYGIS | VIYADGVRRSFIDNVK | GFDGEVSIV showed nd (0 of 6 replicates; controls 0 of 18).

For GQSLEDYGIS | VIYADGQRNAAADEVK | GENAGTFDI, the assay gave nd (0 of 6 replicates; controls 0 of 18). The variant GQDLNEYGIS | VIYADGLRTAYSNNFK | GVQAGFDQY gave nd (0 of 6 replicates; controls 0 of 18). The variant GFGLGEYGIS | VIYADGHRTAYSTSVK | GTIGGMFFN showed 480 nM (1 of 6 replicates; controls 1 of 18). The variant GFDINEYGIS | VIYADGNRTMYQDQVK | GFNAGSFVI gave nd (0 of 6 replicates; controls 0 of 18). The variant GFDLNEYGIS | VIYADGRRTFYADSVK | GQIAGTFNV gave 360 pM (6 of 6 replicates; controls 0 of 18). With GFDLDEYGIS | VIYADGQRTAYADSVK | GTNAGTFDL the result was 1.3 nM (6 of 6 replicates; controls 0 of 18). The variant GFDLNEYGIS | VIYADGRRTAYADSVK | GNEAGTFDQ gave 450 pM (6 of 6 replicates; controls 0 of 18).

The variant GFDLNEYGIS | VIYADGRRTAYSDSVK | GEVAGTFDL gave 690 pM (6 of 6 replicates; controls 0 of 18). With GFDLNEYGIS | VIYADGRRTAYIDSVK | GNVAGTFDT the result was 550 pM (6 of 6 replicates; controls 0 of 18). With GFDLNEYGIS | VIYADGLRTSYVDSVK | GQLAGTFDQ the result was 350 pM (6 of 6 replicates; controls 0 of 18). The variant GFDLNEYGIS | VIYADGIRTAYVDQVK | SRDGIVILF gave nd (0 of 6 replicates; controls 0 of 18). With GFDLNEYGIS | VIYADGVRQAYADSVK | GNVAGTFDT the result was 410 pM (6 of 6 replicates; controls 0 of 18). For GFDLNEYGIS | VIYADGRRTFYADSVK | GNNAGTFTL, the assay gave 110 nM (5 of 6 replicates; controls 0 of 18). For GFDLDEYGIS | VIYADGKRTAYADNVK | GNVAGTFDI, the assay gave 350 pM (6 of 6 replicates; controls 0 of 18).

The variant GFDLNEYGIS | VIYADGRRTAYHDSVK | GTNAGTFDQ gave 2.2 nM (6 of 6 replicates; controls 0 of 18). For GFNLNEFGIS | VIYADGHRQAYVSNVK | GHLGGHFDM, the assay gave nd (0 of 6 replicates; controls 0 of 18). The variant GFDLNEYGIS | VIYADGRRTSYKDSVK | GEIAGTFDV gave 410 pM (6 of 6 replicates; controls 0 of 18). With GFDLNEYGIS | VIYADGRRTFYIDSVK | GETAGTFNV the result was 290 pM (6 of 6 replicates; controls 0 of 18). With GFDLNEYGIS | VIYADGKRTAYADNVK | GENAGTFDI the result was 500 pM (6 of 6 replicates; controls 0 of 18). The variant GFDLDEYGIS | VIYADGMRTFYADSVK | GNIAGTFSS gave 240 pM (6 of 6 replicates; controls 1 of 18). The variant GFDLQEYGVS | VIYADGRRMVYTNKFK | GQSTGTFDF gave nd (0 of 6 replicates; controls 0 of 18).

With GFDLDEYGIS | VIYADGMRTAYADSVK | GANAGTFDI the result was 1.3 nM (6 of 6 replicates; controls 0 of 18). The variant GFDLEDYGIS | VIYADGMRTAYSDSVK | GQNAGTFDV gave 570 pM (4 of 6 replicates; controls 0 of 18). With GFDLDEYGIS | VIYADGRRTAYADSVK | GETAGTFDI the result was 500 pM (6 of 6 replicates; controls 0 of 18). With GFDLNEYGIS | VIYADGQRTFYIDSVK | GEIAGTFNT the result was 5.3 nM (6 of 6 replicates; controls 1 of 18). The variant GFDLNEYGIS | VIYADGMRTAYIDSVK | GENAGTFDT gave 510 pM (6 of 6 replicates; controls 0 of 18). For GKSLEDYGIS | VIYADGQRTSYAETVK | GNNGGVFIY, the assay gave nd (0 of 6 replicates; controls 0 of 18). For GFDLDEYGIS | VIYADGSRTAYADSVK | GNQAGTFDI, the assay gave 730 pM (6 of 6 replicates; controls 0 of 18).

For reference, 4 entries of the list once more:

CDR-H1	CDR-H2	CDR-H3	Kd	replicates with signal	empty controls
GFDLNEYGIS	VIYADGMRTAYADDVK	GNHAGTFDV	150 pM	6/6	1/18
GFDLDEYGIS	VIYADGMRTAYADSVK	GANAGTFDI	1.3 nM	6/6	0/18
GFDLNEYGIS	VIYADGKRKAYADSVK	GNVAGTFDV	220 pM	6/6	0/18
GFDLNEYGIS	VIYADGRRTFYIDSVK	GETAGTFNV	290 pM	6/6	0/18

The authors averaged sequences with at least three values out of six and counted those with two or fewer as poor binders. A sequence measured in both rounds can read differently, since the two assays cover different ranges. Empty control strains, which show no peptide, gave a signal in 1% of pairings with all heavy chain designs; the median was 120 nM and 95% of these signals were weaker than 7.0 nM. No background was subtracted. Also given: how often the same scFv was detected with the empty control strains.